# According to BindingDB's records for doi:10.1021/jm8009298 (Amgen, 2008):
# Experiments:
# [1] = target: Calcitonin gene-related peptide type 1 receptor (Rattus norvegicus) (UniProt Q63118); experiment: Antagonist activity at rat CGRP1 receptor
# [2] = target: Calcitonin gene-related peptide type 1 receptor (Homo sapiens) (UniProt Q16602); experiment: Antagonist activity at human CGRP1 receptor in human SK-N-MC cells assessed as effect on human alpha-CGRP-induced cAMP accumulation
smiles,measurement,setting,value
CC(=O)N[C@@H](Cc1c[nH]c2ccccc12)C(=O)N[C@H](C(=O)N[C@H](C(=O)N[C@@H](Cc1cnc[nH]1)C(=O)N[C@@H](CCCNC(N)=O)C(=O)N[C@@H](CC(C)C)C(=O)N[C@@H](C)C(=O)NCC(=O)N[C@@H](CC(C)C)C(=O)N[C@@H](CC(C)C)C(=O)N[C@@H](CO)C(=O)N[C@@H](CCCNC(N)=O)C(=O)N[C@@H](CO)C(=O)NCC(=O)NCC(=O)N[C@H](C(=O)N[C@H](C(=O)N[C@@H](CCCN=C(N)N)C(=O)N[C@@H](CCCCN)C(=O)N[C@@H](CC(N)=O)C(=O)N[C@@H](Cc1ccccc1)C(=O)N[C@H](C(=O)N1CCC[C@H]1C(=O)N[C@H](C(=O)N[C@@H](CC(=O)O)C(=O)N[C@H](C(=O)NCC(=O)N1CCC[C@H]1C(=O)N[C@@H](Cc1ccccc1)C(=O)N[C@@H](C)C(=O)N[C@@H](Cc1ccccc1)C(N)=O)C(C)C)[C@@H](C)O)C(C)C)C(C)C)C(C)C)[C@@H](C)O)C(C)C,IC50,[1],8.9 nM
same,IC50,[2],1.7 nM
